{
  "sequences": {"note": "Protein sequences, listed by entry. Tags and fused reporters are not part of them.", "UniProt P35462, whole entry": "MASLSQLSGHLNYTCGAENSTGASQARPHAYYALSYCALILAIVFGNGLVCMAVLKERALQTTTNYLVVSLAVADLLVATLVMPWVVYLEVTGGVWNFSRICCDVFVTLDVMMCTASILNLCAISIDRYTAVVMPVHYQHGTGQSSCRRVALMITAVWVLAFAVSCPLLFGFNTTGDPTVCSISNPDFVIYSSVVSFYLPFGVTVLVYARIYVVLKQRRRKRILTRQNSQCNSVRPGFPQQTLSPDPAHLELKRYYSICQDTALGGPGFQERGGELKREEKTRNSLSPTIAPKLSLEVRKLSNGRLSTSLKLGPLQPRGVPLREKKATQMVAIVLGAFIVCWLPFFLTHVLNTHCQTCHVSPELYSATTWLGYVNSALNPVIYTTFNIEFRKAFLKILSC"},
  "source": "PubChem BioAssay AID652048",
  "about": "(National Center for Advancing Translational Sciences (NCATS), 2013)",
  "note": "Values joined by “and” are separate entries in the source; they are usually repeats but may differ in a detail not shown here. Identical values can stand only once. Only a part is listed here, and it is no random draw. Some results for these compounds are left out of this collection, so the calls shown say nothing about other tests. Active and inactive are the calls of the source. Rule as the data show it: active = max activation above about 30%; inactive = the rest.",
  "data": [
    {"target": "D(3) dopamine receptor (Homo sapiens) (UniProt P35462)", "assay": "qHTS of D3 Dopamine Receptor Agonist: qHTS; also: 0% is about no effect", "conditions": "D3R DiscoveRx beta-arrestin cells, luminescence, 90 min; hits give high values", "from_the_text": "D3 DARs represent a very important target for the treatment of several neuropsychiatric disorders. Indeed, one of the most promising therapeutic applications for the D3 DAR is in the area of addiction and related disorders. […] These findings have been observed with a number of addictive substances including cocaine, amphetamine, nicotine, and alcohol. […] Antagonism of the D3 DAR may also be therapeutic in the treatment of schizophrenia or psychosis. […] Since the D3 DAR is expressed in areas of the CNS associated with the control of mood and emotion, it has been hypothesized that selective antagonism of the D3 DAR may be effective in treating psychosis without inducing the motor side effects typically seen with D2 DAR antagonists.\nThis part of the project aims to discover novel agonist.\nNIH Chemical Genomics Center [NCGC]\nNIH Molecular Libraries Probe Centers Network [MLPCN]\nAssay Submitter (PI): David Sibley, NINDS\nFreshly passaged cells are plated in 1536 well white, solid bottom plates at a density of 1500 cells/well in 3microl of complete media. After an overnight incubation at 37 degrees C in 5% CO2, cells are loaded with 23nl of test compound from the compound library (as well as dopamine controls) using a 1536 pintool and incubated at 37 degrees C for 90 minutes. Two microliters of DiscoveRx reagent is then added to all cells, and they are incubated for an additional 30 - 60 minutes at room temperature. Following incubation, luminescence is measured on a ViewLux CCD-based luminometer reader using a 20 sec exposure time.", "values": [
      {"smiles": "CC(C)N1C(=O)CC2(CCN(CCOC(=O)C(O)(c3ccccc3)c3ccccc3)CC2)C1=O", "max activation": "inactive: 4.11%"},
      {"smiles": "CN(C)C1(CNC(=O)c2cccc(Cl)c2)CCCCC1", "max activation": "inactive: -18.7%"},
      {"smiles": "CCN(CC)CC(C)C(C)OC(=O)C(O)(c1ccccc1)c1ccccc1", "note": "(configuration not stated)", "max activation": "inactive: -18.6%"},
      {"smiles": "COc1cc(SC)ccc1C(=O)NCC1(N(C)C)CCCCC1", "max activation": "inactive: 2.77%"},
      {"smiles": "CN(C)C1(CNC(=O)c2ccccc2F)CCCCC1", "max activation": "inactive: -16.9%"},
      {"smiles": "Cc1ccc(C(=O)NCC2(N3CCCCC3)CCCCC2)cc1", "max activation": "inactive: -23.6%"},
      {"smiles": "O=C(NCC1(N2CCCCC2)CCCCC1)c1cc([N+](=O)[O-])ccc1Cl", "max activation": "inactive: 2.6%"},
      {"smiles": "CN1[C@@H]2CC[C@H]1CC(OC(=O)C(O)(c1ccccc1)c1ccccc1)C2", "note": "(some centres not stated)", "max activation": "inactive: -3.68%"},
      {"smiles": "C=CCN1CCN(CCOC(=O)C(O)(c2ccccc2)c2ccccc2)CC1", "max activation": "inactive: -0.776%"},
      {"smiles": "O=C(NCC1(N2CCCCC2)CCCCC1)c1cc(F)c(F)cc1Cl", "max activation": "inactive: 1.3%"},
      {"smiles": "CCN1CCCC(OC(=O)C2(O)c3ccccc3C=Cc3ccccc32)C1", "note": "(configuration not stated)", "max activation": "inactive: -5.39%"},
      {"smiles": "Cc1cc(C(=O)NCC2(N3CCCCC3)CCCCC2)ccc1[N+](=O)[O-]", "max activation": "inactive: -6.1%"},
      {"smiles": "O=C(NCC1(N2CCCCC2)CCCCC1)c1cccc(Br)c1", "max activation": "inactive: -15.2%"},
      {"smiles": "COc1ccc(C(=O)NCC2(N(C)C)CCCCC2)cc1", "max activation": "inactive: 1.69%"},
      {"smiles": "CCOc1cccc(C(=O)NCC2(N(C)C)CCCCC2)c1", "max activation": "inactive: -21.7%"},
      {"smiles": "Cc1ccccc1C(=O)NCC1(N2CCCCC2)CCCCC1", "max activation": "inactive: -3.31%"},
      {"smiles": "CN(C)C1(CNC(=O)c2ccccc2[N+](=O)[O-])CCCCC1", "max activation": "inactive: 0.538%"},
      {"smiles": "CN(C)c1ccc(C(=O)NCC2(N(C)C)CCCCC2)cc1", "max activation": "inactive: -5.41%"},
      {"smiles": "CN(C)C1CCCC1OC(=O)C(O)(c1ccccc1)c1ccccc1", "note": "(configuration not stated)", "max activation": "inactive: -1.16%"},
      {"smiles": "CN1CCCC(OC(=O)C(O)(c2ccccc2)c2ccccc2)C1", "note": "(configuration not stated)", "max activation": "inactive: -1.67%"},
      {"smiles": "CCCCOc1ccccc1C(=O)NCC1(N(C)C)CCCCC1", "max activation": "inactive: -21.6%"},
      {"smiles": "COc1ccc(C(=O)NCC2(N(C)C)CCCCC2)cc1Cl", "max activation": "inactive: -21%"},
      {"smiles": "COc1cccc(C(=O)NCC2(N3CCCCC3)CCCCC2)c1", "max activation": "inactive: -8.59%"},
      {"smiles": "COc1ccc(Cl)cc1C(=O)NCC1(N(C)C)CCCCC1", "max activation": "inactive: -35.9%"},
      {"smiles": "O=C(NCC1(N2CCCCC2)CCCCC1)c1cccc(Cl)c1", "max activation": "inactive: -14.7%"},
      {"smiles": "CN(C)C1(CNC(=O)c2ccc(Br)cc2)CCCCC1", "max activation": "inactive: -5.06%"},
      {"smiles": "COc1cc(C(=O)NCC2(N(C)C)CCCCC2)c([N+](=O)[O-])cc1OC", "max activation": "inactive: 2.16%"},
      {"smiles": "Cc1cccc(C(=O)NCC2(N(C)C)CCCCC2)c1", "max activation": "inactive: -21.5%"},
      {"smiles": "COc1cc(C(=O)NCC2(N(C)C)CCCCC2)cc(OC)c1OC", "max activation": "inactive: -19.8%"},
      {"smiles": "COc1ccc(Br)c(C(=O)NCC2(N3CCCCC3)CCCCC2)c1", "max activation": "inactive: -1.71%"},
      {"smiles": "C=C(C)C#CC(O)(C(=O)OC1CCN(C)CC1)c1ccccc1", "note": "(configuration not stated)", "max activation": "inactive: -12.2%"},
      {"smiles": "CN(C)c1cccc(C(=O)NCC2(N(C)C)CCCCC2)c1", "max activation": "inactive: -6.88%"},
      {"smiles": "CC(C)Oc1ccc(C(=O)NCC2(N(C)C)CCCCC2)cc1", "max activation": "inactive: 0.763% and inactive: 7.73%"},
      {"smiles": "O=C(OCCN1CCCC1)C(O)(c1ccccc1)c1ccccc1", "max activation": "inactive: 2.33%"},
      {"smiles": "O=C(OC1CN2CCC1CC2)C(CO)(c1ccccc1)c1ccccc1", "note": "(configuration not stated)", "max activation": "inactive: -6.25%"},
      {"smiles": "COc1cccc(C(=O)NCC2(N3CCOCC3)CCCCC2)c1", "max activation": "inactive: -21.2%"},
      {"smiles": "CC(C)COc1ccc(C(=O)NCC2(N(C)C)CCCCC2)cc1", "max activation": "inactive: -19.4%"}
    ]}
  ]
}
